Test system: gastric emptying in conscious rats
Details: conscious rat model, dose response
Text: Peptide compounds of the present invention may be evaluated for amylin agonist activity using the methods of measuring the rate of gastric emptying disclosed in, for example, Young et al., Diabetologia, 38(6):642-648 (1995). In a phenol red method, which is described in Example D below, conscious rats receive by gavage an a caloric gel containing methyl cellulose and a phenol red indicator. Twenty minutes after gavage, animals are anesthetized using halothane, the stomach exposed and clamped at the pyloric and lower esophageal sphincters, removed and opened into an alkaline solution. Stomach content may be derived from the intensity of the phenol red in the alkaline solution, measured by absorbance at a wavelength of 560 nm. In a tritiated glucose method, conscious rats are gavaged with tritiated glucose in water. […] Tritium in the plasma separated from tail blood is collected at various timepoints and detected in a beta counter. […]
Gastric emptying was measured using a modification (Plourde et al., Life Sci. 53:857-862 (1993)) of the original method of Scarpignato et al. (Arch. Int. Pharmacodyn. Ther. 246:286-295 (1980)). […] Stomach content was derived from the intensity of the phenol red in the alkaline solution, measured by absorbance at a wavelength of 560 nm. […] In other experiments, particulate gastric contents were centrifuged to clear the solution for absorbance measurements. […]

CGRP (ACDTATCVTHRLAGLLSRSGGVVKNNFVPTNVGSKAF; Calcitonin gene-related peptide 1; UniProt P06881 83-119, looked up)
Inhibition of gastric emptying (in words): dose-dependently inhibit gastric emptying
